Laboratory results as given in US20230303584A1, “4,5,6,7-TETRAHYDROTHIENO[2,3-C]PYRIDINE SUMO INHIBITORS AND USES THEREOF” (SUVALENT THERAPEUTICS INC., priority 2020, published 2023).

Amino acid sequences for entries named in this document (tags omitted).
UniProt Q9UBT2, whole entry: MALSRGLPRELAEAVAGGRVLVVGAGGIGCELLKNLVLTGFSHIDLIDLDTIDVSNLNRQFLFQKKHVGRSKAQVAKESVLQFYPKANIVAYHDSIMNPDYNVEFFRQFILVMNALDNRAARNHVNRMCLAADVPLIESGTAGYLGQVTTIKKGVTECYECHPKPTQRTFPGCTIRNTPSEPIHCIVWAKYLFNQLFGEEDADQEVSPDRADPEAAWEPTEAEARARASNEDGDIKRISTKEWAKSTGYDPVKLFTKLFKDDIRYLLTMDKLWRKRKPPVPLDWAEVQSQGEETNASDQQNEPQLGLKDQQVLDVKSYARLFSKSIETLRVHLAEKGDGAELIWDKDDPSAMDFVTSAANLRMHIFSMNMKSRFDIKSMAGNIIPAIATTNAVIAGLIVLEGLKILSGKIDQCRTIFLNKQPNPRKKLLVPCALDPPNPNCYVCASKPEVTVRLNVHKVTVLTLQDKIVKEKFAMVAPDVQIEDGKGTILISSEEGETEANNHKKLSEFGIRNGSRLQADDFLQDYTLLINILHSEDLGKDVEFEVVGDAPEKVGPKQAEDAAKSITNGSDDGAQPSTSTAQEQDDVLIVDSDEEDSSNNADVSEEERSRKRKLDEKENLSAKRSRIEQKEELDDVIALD
UniProt Q9UBE0, whole entry partner: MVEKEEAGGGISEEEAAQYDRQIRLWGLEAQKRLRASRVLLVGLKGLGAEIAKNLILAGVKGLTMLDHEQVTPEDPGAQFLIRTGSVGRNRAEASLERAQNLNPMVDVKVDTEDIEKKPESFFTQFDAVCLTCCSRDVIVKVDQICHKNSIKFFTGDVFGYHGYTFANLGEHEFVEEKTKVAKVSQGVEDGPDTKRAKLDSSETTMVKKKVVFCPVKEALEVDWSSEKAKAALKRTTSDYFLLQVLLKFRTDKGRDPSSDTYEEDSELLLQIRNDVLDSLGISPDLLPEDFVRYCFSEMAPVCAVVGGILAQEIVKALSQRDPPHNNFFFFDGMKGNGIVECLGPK

Molecular target: SAE1 (Homo sapiens (Human), UniProt Q9UBT2)
Assay: SAE high throughput biochemical (HTRF) assay
Conditions: for IC50: read-out: 15 min preincubation HTRF IC50 (uM) Ave, 100 µM ATP; for HTRF percent of control (POC) @ 25 mM (so in the source): single concentration printed as 25 mM; for HTRF percent of control (POC) @ 25 mM (so in the source) / HTRF percent of control (POC) @ 25 µM: 15 min preincubation; for HTRF percent of control (POC) @ 25 µM: single concentration 25 µM
Experimental: Assay buffer was prepared [50 mM HEPES, pH 7.5, 0.1% BSA and 10 mM MgCl2] as was the Stop Buffer [100 mM HEPES, pH 7.5, 0.05% Tween20, and 410 mM KF]. The 2x Reaction Buffer [80 nM SUMO-GST, 80 nM UBC9-His, 200 µM ATP and diluted in Assay Buffer] and Antibody Reaction Mix [13.34 nM anti-GST XL665, 1.66 nM anti-His EuK and Diluted in Stop Buffer] were also prepared. Compounds were dissolved at 200x in DMSO in a 384-well plate. Serial dilutions were performed in DMSO for each compound, and then each concentration was diluted another 50-fold in Assay Buffer, to 4x the final concentration. 2.5 µL of each concentration was transferred into its own well in a 384-well plate. SAE1 was then diluted to 4x in Assay Buffer, and 2.5 µL of 4x SAE1 was mixed into each compound-containing well. After incubating for 15 minutes at room temperature, 5 µL of 2x Reaction Buffer was mixed into every well. Then after another 45 minutes at room temperature, 10 µL of Antibody Reaction Mix was added and mixed into every well. This plate was then read on an HTRF-compatible plate reader after 2 hours at room temperature, and again after sitting at room temperature overnight. [Final Component Concentrations: SAE1: 12.5 nM; SUMO-GST: 40 nM; UBC9-His: 40 nM; Anti-GST-XL665: 6.67 nM; Anti-His-EuK: 0.83 nM; and ATP: 100 µM ] Alternatively, the compounds are tested at a single concentration of 25 micromolar and the percent of control is measured.

| Compound | IC50 | HTRF percent of control (POC) @ 25 mM (so in the source) | HTRF percent of control (POC) @ 25 µM |
| --- | --- | --- | --- |
| C=CC(=O)N1Cc2sc(Cl)cc2C(c2ccccc2-c2cnn(C)c2C)C1 (stereo not drawn) | 6.24 µM |  |  |
| CCn1cc(-c2ccccc2C2CN(C(=O)/C=C/CN(C)C)C(C)c3sc(Cl)cc32)c(C(F)(F)F)n1 (stereo not drawn) | 8.76 µM |  |  |
| C=CC(=O)N1Cc2sc(Cl)cc2C(c2sccc2Br)C1 (stereo not drawn) | 2.8 µM |  |  |
| C=CC(=O)N1Cc2sc(Cl)cc2C(c2ccccc2-c2ncn(C)n2)C1 (stereo not drawn) |  | 88.81 POC @ 25 mM |  |
| C=CC(=O)N1Cc2sc(Cl)cc2C(c2ccccc2-c2cncc(Cl)c2)C1 (stereo not drawn) |  |  | 28.04 POC @ 25 µM |
| C=CC(=O)N1Cc2sc(Cl)cc2C(c2ccccc2-c2ccncc2)C1 (stereo not drawn) |  |  | 15.29 POC @ 25 µM |
| C=CC(=O)N1Cc2sc(Cl)cc2C(c2ccccc2-c2cn(C)nc2C2CC2)C1 (stereo not drawn) | 1.06 µM | 13.76 POC |  |
| C=CC(=O)N1Cc2sc(Cl)cc2[C@H](c2ccccc2-c2cn(CC)nc2C(=O)NC)C1 | > 25 µM |  |  |
| C=CC(=O)N1Cc2sc(Cl)cc2C(c2ccccc2-c2cncnc2C(F)(F)F)C1 (single isomer, unassigned) [253] | 2.77 µM |  |  |
| C=CC(=O)N1Cc2sc(Cl)cc2C(c2ccccc2-c2cncc(C(F)(F)F)c2)C1 (stereo not drawn) |  |  | 19.64 POC @ 25 µM |
| C=CC(=O)N1Cc2sccc2[C@H](c2ccccc2-c2cn(CC)nc2C(F)(F)F)C1 | 0.88 µM |  |  |
| CN(C)C/C=C/C(=O)N1Cc2sc(Cl)cc2[C@H](c2ccccc2-c2cn(Cc3ncno3)nc2C(F)(F)F)C1 | 1.7 µM |  |  |
| C=CC(=O)N1Cc2sc(Cl)cc2C(c2ccccc2-c2cn(CC)nc2C(F)(F)F)C1 (stereo not drawn) | 0.33 µM |  |  |
| C=CC(=O)N1CC(c2ccccc2-c2cn(CC)nc2C(F)(F)F)c2cc(Cl)sc2C1C (stereo not drawn) | 11.6 µM |  |  |
| C=CC(=O)N1Cc2sc(Cl)cc2C(c2ccccc2-c2cc(C)cc(C)n2)C1 (stereo not drawn) |  |  | >100 POC @ 25 µM |
| C=CC(=O)N1Cc2sc(Cl)cc2C(c2ccccc2-c2cncnc2C(F)(F)F)C1 (single isomer, unassigned) [249] | 2.27 µM |  | 4.68 POC |
| C=CC(=O)N1Cc2sc(Cl)cc2C(c2ccccc2-c2c[nH]nc2C(F)(F)F)C1 (stereo not drawn) | 3 µM |  |  |
| C=CC(=O)N1Cc2sc(Cl)cc2C(c2ccccc2-c2nc(C)co2)C1 (stereo not drawn) |  |  | 39.72 POC @ 25 µM |
| C=CC(=O)N1Cc2sc(Cl)cc2C(c2ccsc2Br)C1 (stereo not drawn) | 0.76 µM |  |  |
| CCn1cc(-c2ccccc2[C@@H]2CN(C(=O)/C=C/CN3CCC(O)CC3)Cc3sc(Cl)cc32)c(C(F)(F)F)n1 | 19.5 µM |  |  |

| Compound | IC50 | HTRF percent of control (POC) @ 25 mM (so in the source) | HTRF percent of control (POC) @ 25 µM |
| --- | --- | --- | --- |
| C=CC(=O)N1Cc2sc(Cl)cc2C(c2ccccc2-c2c(C)nn(C)c2C)C1 (stereo not drawn) | 0.58 µM |  | 4.57 POC |
| C=CC(=O)N1Cc2sc(Cl)cc2C(c2ccccc2-c2cn(C)nc2C(F)(F)F)C1 (stereo not drawn) | 0.32 µM |  |  |
| C=CC(=O)N1Cc2sc(Cl)cc2[C@H](c2ccccc2-c2cn(-c3ccncc3)nc2C(F)(F)F)C1 | 0.91 µM |  |  |
| C=CC(=O)N1Cc2sc(Cl)cc2C(c2ccccc2-c2cn(Cc3cccnc3)nc2C(F)(F)F)C1 (stereo not drawn) | 0.46 µM |  |  |
| C=CC(=O)N1Cc2sc(Cl)cc2C(c2ccccc2-c2cncnc2)C1 (stereo not drawn) |  |  | 7.19 POC @ 25 µM |
| C=CC(=O)N1Cc2sc(Cl)cc2[C@H](c2ccccc2-c2c(C(F)(F)F)nn(CC)c2C#N)C1 | 1.54 µM |  |  |
| C=CC(=O)N1Cc2sc(Cl)cc2C(c2ccccc2-c2cccnc2C(F)(F)F)C1 (single isomer, unassigned) | 1.28 µM |  |  |
| CN(C)C/C=C/C(=O)N1Cc2sc(Cl)cc2[C@H](c2ccccc2-c2cn(CCC#N)nc2C(F)(F)F)C1 | 1.18 µM |  |  |
| C=CC(=O)N1Cc2sc(Cl)cc2C(c2ccsc2C)C1 (stereo not drawn) | 0.94 µM |  |  |
| C=CC(=O)N1Cc2sc(Cl)cc2C(c2ccccc2-c2cnccc2C(F)(F)F)C1 (single isomer, unassigned) | 9.17 µM |  | 5.81 POC |
| C=CC(=O)N1Cc2sc(Cl)cc2C(c2ccccc2-c2ccnn2C)C1 (stereo not drawn) | 1 µM |  | 10.61 POC |
| C=CC(=O)N1Cc2sccc2C(c2ccccc2-c2cn(CC)nc2C(F)(F)F)C1 (stereo not drawn) | 4.1 µM |  |  |
| C=CC(=O)N1Cc2sc(Cl)cc2C(c2ccccc2-c2cnc(C)c(C)c2)C1 (stereo not drawn) |  |  | 14.78 POC @ 25 µM |
| [2H]C1([2H])c2sc(Cl)cc2[C@H](c2ccccc2-c2cn(CC)nc2C(F)(F)F)CN1C(=O)C=C | 0.48 µM |  |  |
| C=CC(=O)N1Cc2sc(Cl)cc2C(c2ccccc2-c2cccc(C)n2)C1 (stereo not drawn) |  |  | 17.58 POC @ 25 µM |
| C=CC(=O)N1Cc2sc(Cl)cc2C(c2ccsc2)C1 (stereo not drawn) | 1.56 µM |  |  |
| C=CC(=O)N1Cc2sc(Cl)cc2C(c2ccsc2-c2cn(C)nc2C)C1 (stereo not drawn) | 12.6 µM |  |  |
| C=CC(=O)N1Cc2sc(Cl)cc2C(c2ccccc2-c2ccn(C)n2)C1 (stereo not drawn) |  |  | 17.03 POC @ 25 µM |
| C=CC(=O)N1Cc2sc(Cl)cc2C(c2ccccc2-c2cncnc2C)C1 (stereo not drawn) | 3.92 µM |  |  |
| [2H]C1([2H])c2sc(Cl)cc2[C@H](c2ccccc2-c2cn(CC)nc2C(F)(F)F)CN1C(=O)/C=C/CN(C)C | 1.3 µM |  |  |

| Compound | IC50 | HTRF percent of control (POC) @ 25 mM (so in the source) | HTRF percent of control (POC) @ 25 µM |
| --- | --- | --- | --- |
| C=CC(=O)N1Cc2sc(Cl)cc2C(c2ccccc2-c2cnn(C)c2)C1 (stereo not drawn) |  |  | 27.51 POC @ 25 µM |
| C=CC(=O)N1Cc2sc(Cl)cc2C(c2ccccc2-c2cccnc2CC)C1 (stereo not drawn) | 5.68 µM |  |  |
| C=CC(=O)N1Cc2sc(Cl)cc2[C@H](c2ccccc2-c2cnn(CC)c2C(F)(F)F)C1 | > 25 µM |  |  |
| C=CC(=O)N1Cc2sc(Cl)cc2C(c2ccccc2-c2cccnc2OC)C1 (stereo not drawn) | 4.52 µM |  | 14.972 POC |
| C=CC(=O)N1Cc2sc(Cl)cc2C(c2ccccc2-c2cn(CCCC)nc2C(F)(F)F)C1 (single isomer, unassigned) | 0.73 µM |  | 0.7 POC |
| C=CC(=O)N1Cc2sc(Cl)cc2C(c2ccccc2-c2c(C)noc2C)C1 (stereo not drawn) | 3.31 µM |  | 7.23 POC |
| C=CC(=O)N1Cc2sc(Cl)cc2C(c2cccs2)C1 (stereo not drawn) | 1.67 µM |  |  |
| C=CC(=O)N1Cc2sc(Cl)cc2C(c2ccccc2-c2cn(C(C)C)nc2C(F)(F)F)C1 (stereo not drawn) | 0.39 µM |  |  |
| C=CC(=O)N1Cc2sc(Cl)cc2C(c2ccccc2-c2cn(-c3ccccn3)nc2C)C1 (stereo not drawn) | 4.08 µM |  | 12.55 POC |
| C=CC(=O)N1Cc2sc(Cl)cc2[C@H](c2ccccc2-c2cnn(CC)c2)C1 | 10.2 µM |  |  |
| C=CC(=O)N1Cc2sc(-c3ccccn3)cc2[C@H](c2ccccc2-c2cn(CC)nc2C(F)(F)F)C1 | 3.17 µM |  |  |
| C=CC(=O)N1Cc2sc(Cl)cc2[C@H](c2ccccc2-c2cn(C3CN(C)C3)nc2C(F)(F)F)C1 | > 25 µM |  |  |
| CCn1cc(-c2ccccc2[C@@H]2CN(C(=O)/C=C/CN3CCC3)Cc3sc(Cl)cc32)c(C(F)(F)F)n1 | 0.89 µM |  |  |
| C=C(F)C(=O)N1Cc2sc(Cl)cc2[C@H](c2ccccc2-c2cn(CC)nc2C(F)(F)F)C1 | > 25 µM |  |  |
| C=CC(=O)N1Cc2sc(Cl)cc2C(c2ccccc2-c2cc(C)nc(C)n2)C1 (stereo not drawn) |  |  | 14.18 POC @ 25 µM |
| C=CC(=O)N1Cc2sc(Cl)cc2C(c2ccccc2-c2ccncn2)C1 (stereo not drawn) |  |  | 68.77 POC @ 25 µM |
| CCn1cc(-c2ccccc2[C@@H]2CN(C(=O)/C=C/CN3CCC(O)C3)Cc3sc(Cl)cc32)c(C(F)(F)F)n1 (stereo partly drawn) | 1.54 µM |  |  |
| C=CC(=O)N1Cc2sc(/C=C/C)cc2[C@H](c2ccccc2-c2cn(CC)nc2C(F)(F)F)C1 | 1.82 µM |  |  |
| C=CC(=O)N1Cc2sc(Cl)cc2C(c2ccccc2-c2cn(C)nc2C)C1 (stereo not drawn) | 0.41 µM |  |  |
| C=CC(=O)N1Cc2sc(Cl)cc2[C@H](c2ccccc2-c2cn(Cc3cocn3)nc2C(F)(F)F)C1 | 0.66 µM |  |  |
